Measurements from patent publication US20090081318A1, “TREATMENT OF NEUROADS USING INHIBITORS OF GLYCOGEN SYNTHASE KINASE (GSK)-3” (priority 2005, published 2009).

Assays:
[1] = test system: subjects with HIV-associated cognitive impairment; test: Proton magnetic resonance spectroscopy (MRS) of brain; type: in vivo, human; conditions: for Cho/Cr Basal Ganglia, Treatment Effect / Cho/Cr Centrum Semi-Ovale, Treatment Effect / Cho/Cr Mid-Frontal Gray Matter, Treatment Effect / MI/Cr Basal Ganglia, Treatment Effect / MI/Cr Centrum Semi-Ovale, Treatment Effect / MI/Cr Mid-Frontal Gray Matter, Treatment Effect / NAA/Cr Basal Ganglia, Treatment Effect / NAA/Cr Centrum Semi-Ovale, Treatment Effect / NAA/Cr Mid-Frontal Gray Matter, Treatment Effect: VPA vs. placebo, baseline to week 10, adjusted for baseline
Experimental: (§1) Proton (1H) magnetic resonance spectroscopy (MRS) and diffusion tensor imaging (DTI) were performed at baseline and week 10, using a 1.5 Tesla General Electric Signa MRI scanner (with twinspeed gradients and EXCITE11 software). Single-voxel proton spectra were acquired from three locations in the brain: midline of the frontal lobes; right (or left) mid-frontal centrum semi-ovale; and right (or left) basal ganglia (BG), and relative peak areas of N-acetyl aspartate (NAA), creatine (Cr), choline (Cho), and myo-inositol (MI) were determined.
(§2) Changes from baseline were assessed using paired t-tests. Comparisons between treatment arms were based on unequal-variance two-sample t-tests for continuous variables, and Fisher's Exact Tests for categorical variables. Comparisons between treatment arms were adjusted for baseline values using Analysis of Covariance. Primary statistical analyses were performed according to the intention-to-treat principle, using the last-observation-carried-forward imputation strategy for subjects who prematurely dropped out of the study. Secondary analyses excluded such subjects.

[2] = test system: subjects with HIV-associated cognitive impairment; test: Diffusion tensor imaging (DTI) of brain; type: in vivo, human; conditions: VPA vs. placebo, baseline to week 10, adjusted for baseline
Experimental: as §1, §2

CCCC(CCC)C(=O)O [Valproic Acid, Valproic acid]
Cho/Cr Basal Ganglia, Treatment Effect ([1]; All Subjects): 0.00
Cho/Cr Centrum Semi-Ovale, Treatment Effect ([1]; All Subjects): 0.08
Cho/Cr Mid-Frontal Gray Matter, Treatment Effect ([1]; All Subjects): 0.10
MI/Cr Basal Ganglia, Treatment Effect ([1]; All Subjects): 0.06
MI/Cr Centrum Semi-Ovale, Treatment Effect ([1]; All Subjects): 0.07
MI/Cr Mid-Frontal Gray Matter, Treatment Effect ([1]; All Subjects): 0.71
NAA/Cr Basal Ganglia, Treatment Effect ([1]; All Subjects): −0.14
NAA/Cr Centrum Semi-Ovale, Treatment Effect ([1]; All Subjects): 0.46^2
NAA/Cr Mid-Frontal Gray Matter, Treatment Effect ([1]; All Subjects): 0.48
Cho/Cr Basal Ganglia, Treatment Effect ([1]; Impaired Subjects): 0.01
Cho/Cr Centrum Semi-Ovale, Treatment Effect ([1]; Impaired Subjects): 0.12
Cho/Cr Mid-Frontal Gray Matter, Treatment Effect ([1]; Impaired Subjects): 0.17
MI/Cr Basal Ganglia, Treatment Effect ([1]; Impaired Subjects): 0.26^4
MI/Cr Centrum Semi-Ovale, Treatment Effect ([1]; Impaired Subjects): 0.18
MI/Cr Mid-Frontal Gray Matter, Treatment Effect ([1]; Impaired Subjects): 1.23
NAA/Cr Basal Ganglia, Treatment Effect ([1]; Impaired Subjects): −0.17
NAA/Cr Centrum Semi-Ovale, Treatment Effect ([1]; Impaired Subjects): 0.83^3
NAA/Cr Mid-Frontal Gray Matter, Treatment Effect ([1]; Impaired Subjects): 0.95^1
NAA/Cr in the frontal white matter (FWM) ([1]; cognitively impaired subjects on VPA, p=0.006): significant NAA/Cr increase
FA (fractional anisotropy) Basal Ganglia, Treatment Effect ([2]; All Subjects): −0.02
FA (fractional anisotropy) Centrum Semi-Ovale, Treatment Effect ([2]; All Subjects): 0.01
FA (fractional anisotropy) Mid-Frontal Gray Matter, Treatment Effect ([2]; All Subjects): 0.03
Tra (trace) Basal Ganglia, Treatment Effect ([2]; All Subjects): 0.07
Tra (trace) Centrum Semi-Ovale, Treatment Effect ([2]; All Subjects): 0.01
Tra (trace) Mid-Frontal Gray Matter, Treatment Effect ([2]; All Subjects): 0.01
FA (fractional anisotropy) Basal Ganglia, Treatment Effect ([2]; Impaired Subjects): −0.01
FA (fractional anisotropy) Centrum Semi-Ovale, Treatment Effect ([2]; Impaired Subjects): 0.00
FA (fractional anisotropy) Mid-Frontal Gray Matter, Treatment Effect ([2]; Impaired Subjects): 0.00
Tra (trace) Basal Ganglia, Treatment Effect ([2]; Impaired Subjects): 0.04
Tra (trace) Centrum Semi-Ovale, Treatment Effect ([2]; Impaired Subjects): 0.03
Tra (trace) Mid-Frontal Gray Matter, Treatment Effect ([2]; Impaired Subjects): 0.02
